Experimental data reported in US7214509B2, “Methods and compositions for degradation of nitroaromatic and nitramine pollutants” (dated 2007).
This is a selection: effects in other tests are not listed, and their absence says nothing.

Legend:
BJ001 = test: Mineralization by members of the genus Methylobacterium on LB medium with succinate, 20 days; conditions: BJ001 biomass in presence of the compound
M. organophilum = test: as above; conditions: M. organophilum biomass in presence of the compound
M. rhodesianum = test: as above; conditions: M. rhodesianum biomass in presence of the compound
[1] = recommended (refs 7, 37); cited from earlier work
[2] = tested on: Methylobacterium sp. BJ001; test: Transformation and mineralization of 14C-TNT, 14C-RDX, 14C-HMX by pure cultures of Methylobacterium sp. BJ001 in LB liquid medium (bioreactors, 55 days); conditions: for Bacterial growth (OD600) in the presence of the compound, by comparison to the control bioreactor / Time until the compound disappeared completely / reached non-detectable levels in solution: BJ001 in LB liquid medium, TNT 25, RDX 20, HMX 2.5 mg L^−1
[3] = tested on: Methylobacterium sp. BJ001; test: Carbon source utilization in minimal liquid medium (biomass dry weight); conditions: 1.0 g L^−1 in minimal liquid medium with NH4NO3
[4] = tested on: Methylobacterium sp. BJ001; test: Mineralization by growing cells of Methylobacterium sp. BJ001 in minimal medium with different carbon/nitrogen sources (LB as positive control), 20 days; conditions: bacterial biomass in presence of the compound
M. extorquens = test: Mineralization by members of the genus Methylobacterium on LB medium with succinate, 20 days; conditions: M. extorquens biomass in presence of the compound
[5] = minimal medium with Fructose only
[6] = minimal medium with NH4NO3 only
[7] = minimal medium, no Fructose and no NH4NO3

Row | SMILES | Biomass (BJ001) | Biomass (M. organophilum) | Biomass (M. rhodesianum) | Water-quality limit [1] | Bacterial growth (OD600) in the presence of the compound, by comparison to the control bioreactor [2] | Time until the compound disappeared completely / reached non-detectable levels in solution [2] | Growth of BJ001 on the compound as carbon source [3] | Biomass [4, 5] | Biomass [4, 6] | Biomass [4, 7] | Time at which the transient metabolite reached a maximum ([2]; metabolites of 14C-TNT (ADNTs, DNATs) or 14C-RDX (MNX) formed by BJ001 in LB medium) | Biomass (M. extorquens) | Biomass ([4]; Control (+) LB medium) | Biomass ([4]; minimal medium with Fructose and NH4NO3)
1 | O=[N+]([O-])N1CN([N+](=O)[O-])CN([N+](=O)[O-])C1 | 0.98 ± 0.11 mg/L | 1.23 ± 0.07 mg/L | 0.95 ± 0.15 mg/L | 105 µg/L | not significantly affected | 40 days | no growth | 0.74 ± 0.16 mg/L | 0.11 ± 0.02 mg/L | 0.14 ± 0.08 mg/L | – | – | – | –
2 | O=NN1CN([N+](=O)[O-])CN([N+](=O)[O-])C1 | – | – | – | – | – | – | – | – | – | – | 4 days | – | – | –
3 | O=[N+]([O-])N1CN([N+](=O)[O-])CN([N+](=O)[O-])CN([N+](=O)[O-])C1 | 0.99 ± 0.06 mg/L | 1.19 ± 0.10 mg/L | 0.98 ± 0.08 mg/L | – | not significantly affected | 40 days | no growth | – | 0.09 ± 0.04 mg/L | 0.16 ± 0.06 mg/L | – | 1.12 ± 0.06 mg/L | – | –
4 | Cc1c([N+](=O)[O-])cc([N+](=O)[O-])cc1[N+](=O)[O-] | 0.97 ± 0.05 mg/L | 1.13 ± 0.05 mg/L | 1.00 ± 0.04 mg/L | – | not significantly affected | less than 10 days | no growth | 0.97 ± 0.13 mg/L | 0.16 ± 0.08 mg/L | 0.19 ± 0.05 mg/L | – | 1.07 ± 0.08 mg/L | 1.06 ± 0.15 mg/L | 0.97 ± 0.06 mg/L
